The values that follow come from article PMC6393897, “An LC-MS/MS Method for Simultaneous Determination of the Toxic and Active Components of Cortex Periplocae in Rat Plasma and Application to a Pharmacokinetic Study” (International Journal of Analytical Chemistry, 2019).

Usually AUC stands for concentration integrated over time. The AUC(0-inf) is the area under the concentration-time curve extrapolated to infinity. Broadly, the Cmax is the highest concentration seen after dosing. By Tmax is commonly meant the time at which the peak concentration occurs. A word on the half-life: it is how long it takes for the measured level to halve. Lower therefore signals fast loss. A word on the MRT: it is a mean duration of stay, worked out from the concentration-time curve.

A short description of the data set: Pharmacokinetic study in rats after oral administration of cortex periplocae extract (plasma LC-MS/MS). To be noted: rat, in vivo, male Sprague-Dawley rats, oral cortex periplocae extract 18.9 g/kg, n = 6, mean ± SD. How it is done:
The pharmacokinetic study was conducted in accordance with the Guidelines for the Care and Use of Laboratory Animals and approved by the Animal Ethics Committee of Tianjin University of Traditional Chinese Medicine. […] Appropriate amount of cortex periplocae extract was suspended in 0.5% carboxymethyl cellulose sodium salt aqueous solution (CMC-Na) and the volume of oral administration was 1 mL/100g. […] The rats were anesthetized with ethyl ether before each withdrawal. […] For this repeat bleeds at short intervals, fluid replacement (appropriate volume of physiological saline) was required. The blood samples were immediately centrifuged 10 min at 7000 rpm. The obtained plasma was transferred into another centrifuge tube and stored at -80°C for analysis.
For the maximum drug concentration in plasma (Cmax) and the time to reach maximum drug concentration (Tmax), the values could be directly obtained. The other key parameters such as the area under the plasma concentration–time curve (AUC), elimination half-life (t1/2), and mean residence time (MRT) were calculated with DAS (Drug and Statistics 1.0, Medical College of Wannan, China) using non-compartmental model.

Turning to `C[C@]12CC[C@H](O)C[C@@]1(O)CC[C@@H]1[C@@H]2CC[C@]2(C)[C@@H](C3=CC(=O)OC3)CC[C@]12O` [periplogenin], the total exposure AUC(0-inf) was found to be 446 ± 174 ng·h/mL, the peak level (Cmax) was 14.5 ± 7.75 ng/mL, the Tmax was determined as 5.78 ± 3.56 h and the half-life was 22.9 ± 17.3 h. For the same compound, the AUC (0-48 h, read-out: AUC(0-tn)) came to 207 ± 131 ng·h/mL. Besides, the MRT (read-out: MRT(0-tn)) is 19.1 ± 3.64 h.
